Values quoted from earlier work, collected in patent publication US6328989A, “Use of bicozamycin for the manufacture of a medicament for treating infections with enterohemorrhagic e. coli” (Fujisawa Pharmaceutical Co., Ltd., priority 1997, dated 2001).

Test system: E. coli
Conditions: cited from earlier work

SMILES: CCn1cc(C(=O)O)c(=O)c2cc(F)c(N3CCNCC3)cc21 [NFLX, norfloxacin]
- antibacterial activity against E. coli: strong antibacterial activity against E. coli
